## Ab-14 heavy chain CDR variants: yeast mating affinities

The target is the same throughout: PDVDLGDISGINAS, from the HR2 region of SARS-CoV-2 spike.

Each scFv is VH, a 15-residue (Gly4Ser)3 linker, VL, as in the parent Ab-14, and differs from it in the CDRs of the heavy chain only.
VH: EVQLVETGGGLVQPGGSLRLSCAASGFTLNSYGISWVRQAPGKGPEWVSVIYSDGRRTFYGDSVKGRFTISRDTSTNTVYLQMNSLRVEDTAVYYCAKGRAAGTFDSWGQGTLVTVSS
VL: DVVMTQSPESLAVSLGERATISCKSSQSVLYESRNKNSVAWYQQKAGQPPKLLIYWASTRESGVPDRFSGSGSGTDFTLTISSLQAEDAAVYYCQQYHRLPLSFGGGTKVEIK

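Phage display of a naive human antibody library on the peptide gave the parent. These sequences belong to a second round, designed from the earlier measurements on random variants of the parent. Their group label is 14H_Ctrl (Ctrl: baseline library sampled from a position-specific scoring matrix, with some repeated check sequences). The scFvs were displayed on barcoded MATa yeast, the peptide on MATalpha yeast. The frequency of each diploid, read from paired DNA barcodes, reflects how well the two displayed proteins bind. Scores were corrected for input abundance and mapped to Kd with protein pairs of known affinity run in the same pool. Each pool was mated in six replicate cultures.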

Positions count from residue 1 of the parent VH; T28Q puts Q in place of T.
Scale: log10 of Kd in nM, estimated from mating counts; low values are strong binders.
"n.d." marks a missing value. The strain was present, yet no cells mated with the target were sequenced in that replicate, which points to weak or no binding.
Background: pairings of all heavy chain designs with three empty control strains gave a value in 1% of cases (median 2.08, 5th percentile 0.84). Values in that range, when seen in few replicates, are hard to tell from nonspecific mating. The control count says in how many pairings with the empty strains this scFv gave a signal, with their mean in brackets.

| # | changes | log10 Kd (nM) by replicate | control signals |
|---|---|---|---|
| 1 | T28Q/L29I/I34R/A101E/A102K | n.d. n.d. n.d. n.d. n.d. n.d. | 0 of 18 |
| 2 | T28D/G99S/A101L/F105S/D106M | n.d. n.d. n.d. n.d. n.d. n.d. | 0 of 18 |
| 3 | F59Q/F105I/S107Y | n.d. n.d. n.d. n.d. n.d. n.d. | 0 of 18 |
| 4 | A102K/F105T/S107A | n.d. n.d. n.d. n.d. n.d. 1.15 | 0 of 18 |
| 5 | G61H/R100Q/T104A/F105K/D106N | n.d. n.d. n.d. n.d. n.d. n.d. | 0 of 18 |
| 6 | R56I/R100A/A101V/A102I | n.d. n.d. n.d. n.d. n.d. n.d. | 0 of 18 |
| 7 | T28S/D106N | n.d. n.d. n.d. n.d. n.d. n.d. | 0 of 18 |
| 8 | G55N/F59A/G61K/T104R | n.d. n.d. n.d. n.d. n.d. n.d. | 0 of 18 |
| 9 | F27Q/G61S/G103F | n.d. n.d. n.d. n.d. n.d. n.d. | 0 of 18 |
| 10 | G26L/T28S/S31D/G61S | 1.48 1.43 1.01 1.67 1.91 1.50 | 0 of 18 |
| 11 | G61I/G103K/T104D | n.d. n.d. n.d. n.d. n.d. n.d. | 0 of 18 |
| 12 | N30S/S53R/R56H | n.d. 2.43 n.d. 1.53 n.d. n.d. | 0 of 18 |
| 13 | T28H/S31M/G103T/D106T | 2.00 n.d. n.d. n.d. n.d. n.d. | 2 of 18 (1.14) |
| 14 | T28K/S35H/V50C/G61S | n.d. n.d. n.d. n.d. n.d. n.d. | 0 of 18 |
| 15 | N30E/G61D/G103F | n.d. n.d. n.d. n.d. n.d. n.d. | 0 of 18 |
| 16 | N30D/S35H/R100P/S107L | n.d. n.d. 1.99 n.d. n.d. n.d. | 0 of 18 |
| 17 | G55T/G61M | n.d. n.d. n.d. n.d. n.d. n.d. | 0 of 18 |
| 18 | N30K/S31D | n.d. n.d. -0.20 0.78 0.61 1.86 | 0 of 18 |
| 19 | S31E/F59A/R100Y/T104Q | n.d. n.d. n.d. n.d. n.d. 2.00 | 0 of 18 |
| 20 | N30T/S31Q | 1.00 1.07 1.07 0.94 2.41 1.35 | 0 of 18 |
| 21 | T28M/R56L/G61I/S63K/A102K | n.d. 1.95 n.d. n.d. n.d. n.d. | 0 of 18 |
| 22 | L29R/S63N | 1.30 1.16 1.60 0.54 0.21 1.44 | 0 of 18 |
| 23 | D54I/T104F | n.d. n.d. n.d. n.d. n.d. n.d. | 0 of 18 |
| 24 | N30L/G61D/S63D/R100S | n.d. 2.59 n.d. 3.48 n.d. 3.17 | 0 of 18 |
| 25 | G26H/A101L | n.d. n.d. n.d. n.d. n.d. n.d. | 0 of 18 |
| 26 | F27N/V64H/G103V/F105K | n.d. n.d. n.d. n.d. n.d. n.d.; n.d. n.d. n.d. n.d. n.d. n.d.; n.d. n.d. n.d. n.d. n.d. n.d.; n.d. n.d. n.d. n.d. n.d. n.d. | 2 of 72 (2.05) |
| 27 | G99W/F105S | n.d. n.d. n.d. n.d. n.d. n.d. | 1 of 18 (1.46) |
| 28 | S31Q/R56I | 0.96 0.43 0.48 0.50 0.56 0.72 | 0 of 18 |
| 29 | S31E/R100Q/D106E | 0.34 0.29 0.42 0.46 0.33 0.99 | 0 of 18 |
| 30 | A101R/S107W | n.d. n.d. n.d. n.d. n.d. n.d. | 1 of 18 (0.93) |
| 31 | F27N/S31Q/A102P/D106R | n.d. n.d. n.d. n.d. n.d. n.d. | 0 of 18 |
| 32 | R56K/G61Q/A101L | n.d. 1.91 n.d. 1.81 2.06 1.57 | 0 of 18 |
| 33 | G55K | n.d. n.d. n.d. n.d. n.d. n.d. | 0 of 18 |
| 34 | T28V/A102T/T104G | n.d. n.d. n.d. n.d. n.d. n.d. | 1 of 18 (0.59) |
| 35 | F27Y/F59A | n.d. n.d. 0.79 n.d. 0.85 n.d. | 0 of 18 |
| 36 | S63D | n.d. 2.21 2.39 2.64 1.10 1.46 | 0 of 18 |
| 37 | R100E/A101T | 0.94 0.21 0.33 0.01 0.47 0.19 | 0 of 18 |
| 38 | N30D/T58V/S63A | n.d. 0.83 0.47 1.71 0.44 n.d. | 0 of 18 |
| 39 | T58N/F59E/A101L/D106L | n.d. n.d. n.d. n.d. n.d. n.d. | 0 of 18 |
| 40 | T28G/S31E/G61N/G103L/T104N | n.d. n.d. n.d. n.d. n.d. n.d. | 0 of 18 |
| 41 | T28N/S53A/R100Q/A101S | 0.79 0.02 -0.39 0.04 -0.22 -0.43 | 0 of 18 |
| 42 | A101E/T104Q | n.d. n.d. n.d. n.d. n.d. n.d. | 0 of 18 |
| 43 | A102R/D106E | n.d. n.d. n.d. n.d. n.d. n.d. | 0 of 18 |
| 44 | F27Y/T28N/S31E/I34V | n.d. n.d. n.d. n.d. n.d. n.d. | 0 of 18 |

For reference, 5 entries of the list once more:

changes,log10 Kd (nM) by replicate,control signals
F27Y/F59A,n.d. n.d. 0.79 n.d. 0.85 n.d.,0 of 18
G61H/R100Q/T104A/F105K/D106N,n.d. n.d. n.d. n.d. n.d. n.d.,0 of 18
S31E/F59A/R100Y/T104Q,n.d. n.d. n.d. n.d. n.d. 2.00,0 of 18
F27N/S31Q/A102P/D106R,n.d. n.d. n.d. n.d. n.d. n.d.,0 of 18
F59Q/F105I/S107Y,n.d. n.d. n.d. n.d. n.d. n.d.,0 of 18

Some sequences occur more than once in the pool; their replicates are listed entry by entry, parted by semicolons.
In the paper, a design with two or fewer of six values counts as a poor binder.
A sequence measured in both rounds can read differently, since the two assays cover different ranges.
The parent sequence was in this pool as ten entries: three were never detected, three once, and four in most replicates, with averages from 0.34 to 2.37.

From the AlphaSeq antibody data of Li et al. 2023 (doi:10.1038/s41467-023-39022-2), copy in the FLAb collection.